Sequences of proteins named here, by UniProt entry; tags and fusion partners are left off. A change or cut given only in a name is not applied to a line headed by its entry.
UniProt P14780: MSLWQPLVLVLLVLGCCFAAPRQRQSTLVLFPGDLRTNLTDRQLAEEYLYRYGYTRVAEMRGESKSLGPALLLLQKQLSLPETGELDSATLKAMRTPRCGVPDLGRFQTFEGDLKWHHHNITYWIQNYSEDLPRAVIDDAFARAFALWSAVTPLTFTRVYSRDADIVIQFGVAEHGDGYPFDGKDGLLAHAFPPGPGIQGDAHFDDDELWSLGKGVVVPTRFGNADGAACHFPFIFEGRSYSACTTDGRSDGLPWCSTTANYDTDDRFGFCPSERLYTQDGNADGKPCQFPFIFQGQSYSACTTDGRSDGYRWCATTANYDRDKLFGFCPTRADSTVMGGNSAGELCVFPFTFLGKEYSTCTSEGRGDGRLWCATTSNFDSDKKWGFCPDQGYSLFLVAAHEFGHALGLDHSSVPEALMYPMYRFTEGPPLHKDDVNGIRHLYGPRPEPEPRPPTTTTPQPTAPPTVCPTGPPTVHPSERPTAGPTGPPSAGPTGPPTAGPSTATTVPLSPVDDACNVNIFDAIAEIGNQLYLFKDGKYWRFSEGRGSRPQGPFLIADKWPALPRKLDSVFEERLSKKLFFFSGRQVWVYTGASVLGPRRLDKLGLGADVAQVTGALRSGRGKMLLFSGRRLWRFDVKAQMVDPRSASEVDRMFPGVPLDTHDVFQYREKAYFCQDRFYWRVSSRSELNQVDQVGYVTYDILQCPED

According to ChEMBL document CHEMBL3616458, “Synthesis of chiral ND-322, ND-364 and ND-364 derivatives as selective inhibitors of human gelatinase” (Bioorg Med Chem, 2015):

Target: Matrix metalloproteinase-9 (Homo sapiens, UniProt P14780)
Assay: Inhibition of human full length MMP9 using Mca-Pro-Leu-Gly-Leu-Dap(Dnp)-Ala-Arg-NH2 as substrate incubated for 2 hrs prior to testing measured for 15 mins by fluorometric analysis

SMILES	IC50 [nM]
CC(=O)Nc1ccc(Oc2ccc(S(=O)(=O)C[C@H]3CS3)cc2)cc1	429
CC(=O)Nc1ccc(Oc2ccc(S(=O)(=O)CC3CS3)cc2)cc1 (racemic)	529
CC(=O)Nc1ccc(Oc2ccc(S(=O)(=O)C[C@@H]3CS3)cc2)cc1	677
